Results reported in patent US11104703B2, “Binding compound and uses thereof” (priority 2016, dated 2021).

By UniProt entry, the sequences of proteins in these tests, tags left out. Where a name states a change or a piece, a line headed by the entry shows the natural chain unless it says otherwise.
UniProt Q9Y5Y6, whole entry, species assumed: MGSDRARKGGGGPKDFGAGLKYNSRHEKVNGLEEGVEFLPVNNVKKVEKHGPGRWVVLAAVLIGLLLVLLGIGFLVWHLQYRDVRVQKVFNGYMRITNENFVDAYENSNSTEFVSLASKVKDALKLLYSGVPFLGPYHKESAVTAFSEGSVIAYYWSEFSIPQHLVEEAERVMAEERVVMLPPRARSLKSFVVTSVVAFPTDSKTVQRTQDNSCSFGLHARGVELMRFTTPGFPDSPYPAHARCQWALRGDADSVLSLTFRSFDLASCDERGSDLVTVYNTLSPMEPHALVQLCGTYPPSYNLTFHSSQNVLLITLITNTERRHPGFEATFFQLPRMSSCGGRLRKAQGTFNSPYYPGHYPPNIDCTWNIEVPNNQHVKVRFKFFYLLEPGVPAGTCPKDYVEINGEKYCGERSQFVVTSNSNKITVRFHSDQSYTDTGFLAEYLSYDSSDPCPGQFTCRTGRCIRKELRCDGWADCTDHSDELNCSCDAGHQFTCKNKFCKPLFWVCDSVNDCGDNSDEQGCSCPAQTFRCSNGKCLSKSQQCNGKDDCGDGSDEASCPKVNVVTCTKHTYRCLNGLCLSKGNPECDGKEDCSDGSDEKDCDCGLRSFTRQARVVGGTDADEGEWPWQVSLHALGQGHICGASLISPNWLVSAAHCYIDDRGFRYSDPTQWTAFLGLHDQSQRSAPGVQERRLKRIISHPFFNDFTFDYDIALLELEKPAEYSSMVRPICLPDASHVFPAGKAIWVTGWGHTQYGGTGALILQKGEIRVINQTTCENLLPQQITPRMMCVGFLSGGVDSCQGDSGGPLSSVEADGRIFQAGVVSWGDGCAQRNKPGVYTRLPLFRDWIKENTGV
UniProt O60235: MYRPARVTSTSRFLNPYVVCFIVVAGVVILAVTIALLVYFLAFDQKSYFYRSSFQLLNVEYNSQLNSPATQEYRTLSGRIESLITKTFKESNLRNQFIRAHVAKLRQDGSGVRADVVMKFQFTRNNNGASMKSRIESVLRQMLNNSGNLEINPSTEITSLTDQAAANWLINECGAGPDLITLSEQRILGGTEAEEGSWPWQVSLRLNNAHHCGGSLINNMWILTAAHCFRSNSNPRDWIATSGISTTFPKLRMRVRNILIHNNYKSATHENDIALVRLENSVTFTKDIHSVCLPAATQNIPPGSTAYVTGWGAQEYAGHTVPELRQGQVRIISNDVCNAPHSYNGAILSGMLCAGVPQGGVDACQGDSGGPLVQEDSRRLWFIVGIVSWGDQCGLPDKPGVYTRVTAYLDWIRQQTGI

Experiments:
Matriptase = Matriptase (Homo sapiens, UniProt Q9Y5Y6); details: Mean (±SD)
[1] = target: Human Airways Trypsin-like protease (HAT) (Homo sapiens, UniProt O60235); details: Mean (±SD)
[2] = tested on: CuFi cells (a CF human epithelial cell line); details: 24 hours, 1-100 μM
Thrombin = Thrombin (Homo sapiens, UniProt P00734); details: Boc-Val-Pro-Arg-NHMec 50 μM, Mean (±SD)
Trypsin = details: PBS pH 7.4, 37° C., Cbz-Gly-Gly-Arg-NHMec 50 μM, Mean (±SD)

## Biotin-PEG-NH-Gly-Gly-N-(n-guanidino-propyl)-glycine succinimidyl carbamate [NAP858]
Matriptase
  Ki: 733 nM
[1]
  Ki: 659 nM
[2]
  cytotoxicity (MTS, viable cells): well tolerated

## Biotin-PEG-NH—(N-benzyl-glycyl)-(D)-phenylalanyl-N-(n-guanidino-propyl)-glycine succinimidyl carbamate [NAT988]
Thrombin
  Ki: 880 nM

## Biotin-PEG-NH—N-(n-guanidino-propyl)-glycine-Gln-Sar-N-(n-guanidino-propyl)-glycine succinimidyl carbamate [NAP1099]
Matriptase
  Ki: 83.3 nM
[1]
  Ki: 322 nM
[2]
  cytotoxicity (MTS, viable cells): well tolerated
Trypsin
  Ki: 150 nM

## Biotin-PEG-NH—N-(n-guanidino-propyl)-glycine-N(Val)-N(Lys)-N-(n-guanidino-propyl)-glycine succinimidyl carbamate [NAP1127]
[2]
  cytotoxicity (MTS, viable cells): well tolerated
